This assay has as its target Prothrombin (Homo sapiens, UniProt P00734). Kind of assay: In vitro inhibition constant (Ki) against human thrombin.

In general, Ki refers to the dissociation constant of the complex between target and ligand, obtained from inhibition or displacement. A low value points to a stronger hold on the target.

Molecules are shown by their SMILES.

As for `CC1CNc2c(cccc2S(=O)(=O)N[C@@H](CCCNC(=N)N)C(=O)N2CC[C@@H](C)C[C@@H]2C(=O)O)C1` (stereo partly specified) [ARGATROBAN], the Ki was 4 nM.

The values above are taken from ChEMBL document CHEMBL1144934, “Efficacious and orally bioavailable thrombin inhibitors based on a 2,5-thienylamidine at the P1 position: discovery of N-carboxymethyl-d-diphenylalanyl-l-prolyl[(5-amidino-2-thienyl)methyl]amide” (J Med Chem, 2003).
